Molecular target: T1, TET proteins, everted membrane vesicles of E. coli strain D1-209 bearing the Class B tetracycline resistance determinant (Escherichia coli, UniProt P02980)
T1 construct: Everted vesicles, to which the TET proteins responsible for tetracycline efflux are attached; endogenous in cells; host or cells: E. coli strain D1-209 (everted inner membrane vesicles)
Assay: biochemical

By UniProt entry, the sequences of proteins in these tests, tags left out. Where a name states a change or a piece, a line headed by the entry shows the natural chain unless it says otherwise.
UniProt P02980: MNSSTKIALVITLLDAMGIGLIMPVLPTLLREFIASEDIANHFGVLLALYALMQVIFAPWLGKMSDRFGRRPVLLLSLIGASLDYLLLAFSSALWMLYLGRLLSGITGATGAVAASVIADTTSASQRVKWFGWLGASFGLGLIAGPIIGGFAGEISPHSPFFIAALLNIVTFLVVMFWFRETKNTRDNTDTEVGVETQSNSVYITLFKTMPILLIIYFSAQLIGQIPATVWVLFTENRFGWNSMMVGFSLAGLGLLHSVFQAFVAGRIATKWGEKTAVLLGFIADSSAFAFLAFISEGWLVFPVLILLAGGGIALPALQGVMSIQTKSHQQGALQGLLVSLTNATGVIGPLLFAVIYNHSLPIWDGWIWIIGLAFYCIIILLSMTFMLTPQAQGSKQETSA

## CC1c2cccc(O)c2C(=O)C2=C(O)C3(O)C(=O)C(C(N)=O)=C(O)C(N(C)C)C3C(OC(=O)Cc3ccccc3)C21 (stereo not shown) [Cmpd 3]
  IC50: 1600 nM

From patent US7732429B2 (Trustees of Tufts College, priority 1994, dated 2010)
